Data on 1 molecule can be found in ChEMBL document CHEMBL1133213, “Synthesis, molecular modeling and preliminary biological evaluation of 1-amino-3-phosphono-3-cyclopentene-1-carboxylic acid and 1-amino-3-phosphono-2-cyclopentene-1-carboxylic acid, two novel agonists of metabotropic glutamate receptors of group III” (Bioorg Med Chem Lett, 2000).

Amino acid sequences for entries named in this document (tags omitted). A change or cut given only in a name is not applied to a line headed by its entry.
UniProt Q14833: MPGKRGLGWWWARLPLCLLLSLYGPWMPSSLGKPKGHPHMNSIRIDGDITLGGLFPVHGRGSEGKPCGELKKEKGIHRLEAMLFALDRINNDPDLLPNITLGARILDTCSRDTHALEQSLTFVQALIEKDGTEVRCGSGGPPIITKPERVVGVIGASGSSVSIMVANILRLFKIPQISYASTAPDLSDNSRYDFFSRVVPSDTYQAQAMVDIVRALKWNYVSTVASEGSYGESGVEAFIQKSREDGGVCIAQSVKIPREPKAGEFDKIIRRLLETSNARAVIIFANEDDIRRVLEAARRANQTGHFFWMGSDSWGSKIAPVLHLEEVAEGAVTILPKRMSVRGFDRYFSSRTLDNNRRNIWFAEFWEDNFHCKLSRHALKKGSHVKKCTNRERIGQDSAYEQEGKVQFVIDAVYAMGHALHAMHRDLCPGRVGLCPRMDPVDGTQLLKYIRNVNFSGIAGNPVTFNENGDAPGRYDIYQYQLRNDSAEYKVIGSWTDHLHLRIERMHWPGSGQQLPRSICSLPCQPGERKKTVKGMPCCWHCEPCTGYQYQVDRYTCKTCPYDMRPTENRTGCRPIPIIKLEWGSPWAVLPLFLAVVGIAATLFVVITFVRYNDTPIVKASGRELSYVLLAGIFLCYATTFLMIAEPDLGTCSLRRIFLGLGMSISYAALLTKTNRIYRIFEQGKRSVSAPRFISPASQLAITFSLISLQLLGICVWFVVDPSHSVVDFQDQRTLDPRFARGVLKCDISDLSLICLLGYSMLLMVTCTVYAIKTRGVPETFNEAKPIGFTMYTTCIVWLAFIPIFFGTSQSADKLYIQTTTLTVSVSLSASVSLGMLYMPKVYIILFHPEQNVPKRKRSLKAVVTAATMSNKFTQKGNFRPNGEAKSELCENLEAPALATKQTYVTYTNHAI

This experiment concerns the target Metabotropic glutamate receptor 4 (Homo sapiens, UniProt Q14833). Nature of the experiment: Agonistic activity at Metabotropic glutamate receptor 4 expressed in mammalian cells by GTPgammaS binding assay. Format: cell-based. In outline:
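[35S]-GTPγS binding to membranes prepared from CHO cells expressing human mGlu4a. Stimulation is normalised to that given by 1 mM L-Glu. Points are mean ± SEM of three determinations from one experiment.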

With `N[C@@]1(C(=O)O)CC[C@@H](C(=O)O)C1`, a half-maximal response (EC50) required 39 µM.

As a reminder, the EC50 is the midpoint of the concentration-response curve. A low value points to higher potency in that assay.
